Patent US4451485A, “Treatment of cardio-vascular diseases with 3-(2,2,2-trimethylhydrazinium) propionate dihydrate” (Institu Organicheskogo Sinteza Akademii Nauk Latviiskoi SSR, priority 1981, dated 1984)

Experiments:
[1] = Coronary circulation and hemodynamics in narcotized cats; conditions: in vivo
Method: In acute experiments on narcotized cats with a mass of from 2.9 to 4.1 kg under artificial respiration, arterial pressure was recorded in the common carotide artery, central venous pressure in the right auricle, volume rate of blood flow in the ascending aortic arch and volume rate of the coronary blood flow. At the same time, there was recorded the content of oxyhemoglobin in venous coronary blood.

[2] = in vivo; conditions: mouse, ip, white mice, intraperitoneal, read-out: Acute toxicity, LD50

CCOC(=O)COc1ccc2c(C)c(CCN(CC)CC)c(=O)oc2c1 [Carbocromene, reference compound]
Therapeutical index [1]: 130
LD50 [2]: 650 mg/kg
